The values that follow come from PubChem BioAssay AID504904 (The Scripps Research Institute Molecular Screening Center, 2011).

Amino acid sequences for entries named in this document (tags omitted).
UniProt P35372, whole entry, looked up: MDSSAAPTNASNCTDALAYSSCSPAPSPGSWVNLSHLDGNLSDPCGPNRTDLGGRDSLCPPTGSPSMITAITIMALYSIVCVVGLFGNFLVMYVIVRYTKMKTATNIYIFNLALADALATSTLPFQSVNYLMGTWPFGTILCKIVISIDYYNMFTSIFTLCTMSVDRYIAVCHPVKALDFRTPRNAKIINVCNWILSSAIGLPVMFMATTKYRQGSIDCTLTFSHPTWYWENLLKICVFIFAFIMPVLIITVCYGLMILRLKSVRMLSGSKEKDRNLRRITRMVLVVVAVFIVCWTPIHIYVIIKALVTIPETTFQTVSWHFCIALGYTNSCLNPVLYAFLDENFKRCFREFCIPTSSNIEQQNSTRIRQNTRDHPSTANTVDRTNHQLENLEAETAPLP
UniProt P41143, whole entry, looked up: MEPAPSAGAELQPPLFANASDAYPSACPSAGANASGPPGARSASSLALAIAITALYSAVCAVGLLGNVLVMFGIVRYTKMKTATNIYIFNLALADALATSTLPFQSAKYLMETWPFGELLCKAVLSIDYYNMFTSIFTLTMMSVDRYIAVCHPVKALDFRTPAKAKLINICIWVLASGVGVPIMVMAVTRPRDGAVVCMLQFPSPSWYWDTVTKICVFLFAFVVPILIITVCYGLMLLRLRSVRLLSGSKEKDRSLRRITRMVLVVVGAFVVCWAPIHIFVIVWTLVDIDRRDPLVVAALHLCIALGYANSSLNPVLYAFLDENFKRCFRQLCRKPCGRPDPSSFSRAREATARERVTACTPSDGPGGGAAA

The list shows a part of the results, in another mix than the full data. The source made the active and inactive calls. Rule as the data show it: active = activation above about 18%; inactive = the rest.

For the assay, the target named is Mu-type opioid receptor (Homo sapiens) + Delta-type opioid receptor (Homo sapiens) (UniProt P35372+P41143). The assay is described as follows: OPRM1-OPRD1 heterodimer formation agonism – cell-based, luminescence, confirmation (AID 504904).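 Also: 0% = vehicle-treated cells and 100% = reference agonist.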 The following applies: cells, MOR-DOR heterodimerization, luminescence complementation; at 9.3 µM; hits give high values.
Regarding `Cc1ccc(C)c(CN2CCC(n3nnc4cc(F)ccc43)CC2)c1`, the activation was active: 65.2%.

As for `CCn1c(N)[n+](CC(=O)Nc2ccc(SC(F)F)cc2)c2ccccc21`, the activation is active: 75%.

For the compound `CN1CN(c2ccccc2)C2(CCN(CCCSc3ccccc3NC(=O)/C=C/c3ccccc3)CC2)C1=O`, the activation is inactive: 11.5%.

For the compound `O=[N+]([O-])c1cc(Oc2ccc([N+](=O)[O-])cc2C(F)(F)F)cc([N+](=O)[O-])c1`, the activation is active: 33.3%.
